Source: US8193369B2, “Benzimidazole cannabinoid agonists” (Janssen Pharmaceutica NV, priority 2007, dated 2012)

Protein sequences, listed by entry. Tags and fused reporters are not part of them.
UniProt P34972, whole entry: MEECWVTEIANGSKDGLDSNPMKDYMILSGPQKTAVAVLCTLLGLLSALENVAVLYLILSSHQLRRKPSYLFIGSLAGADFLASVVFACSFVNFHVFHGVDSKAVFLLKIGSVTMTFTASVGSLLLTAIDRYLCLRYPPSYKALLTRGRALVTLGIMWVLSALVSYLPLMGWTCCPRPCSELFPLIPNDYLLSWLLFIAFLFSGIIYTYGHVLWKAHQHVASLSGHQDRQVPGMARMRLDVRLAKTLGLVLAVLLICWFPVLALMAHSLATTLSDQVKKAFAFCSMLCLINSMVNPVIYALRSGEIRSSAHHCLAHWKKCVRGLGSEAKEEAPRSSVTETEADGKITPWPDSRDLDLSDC

Target: human CB2 (hCB2) receptor (Homo sapiens, UniProt P34972)
Test: Inhibition of forskolin-activated cAMP production upon activation of human CB2 receptor (HTRF)
Type: cell-based
Settings: CHO-K1 cells stably transfected with hCB2; 15 μM forskolin; pEC50=-log(EC50); relative to WIN55212-2
Protocol: D. Pharmacological Examples D.1 Inhibition of cAMP in Response to Activation of the Human CB2 Receptors
Functional activity of the test compounds was assessed by measuring their potency to inhibit forskolin-activated cAMP production upon activation of human CB2 (hCB2) receptor through homogenous time resolved fluorescence (HTRF) assays.
CHO-K1 cells stably transfected with hCB2 were grown up to 80-90% confluence in T175 Falcon flasks in DMEM/NUT MIX F-12 culture medium complemented with 2% Solution A (5.10^6 IU/l penicillin G, 5 g/l streptomycin sulphate, 5.5 g/l pyruvate, 14.6 g/l L-glutamine, 1M NaOH) and 10% foetal calf serum. Before the experiments, medium was removed, cells were washed with PBS/EDTA (140 mM NaCl, 1 mM Na2-EDTA, 8 mM Na2HPO4.2H2O, 8.5 mM KH2PO4, 2.7 mM KCl, 21 mM glucose), resuspended in stimulation buffer (HBSS 1×, IBMX 1 mM, Hepes 5 mM, MgCl2 10 mM, BSA 0.1%, pH 7.4). Cells were diluted to a concentration of 10^6 cells/ml for hCB2 experiments. Assays were performed using the cAMP Dynamic HTRF kit (CIS bio international, France) according to the recommendations of the manufacturer. […]
After equilibration of the reaction mixtures for 1 to 24 hours in dark at room temperature, fluorescence was measured at 665 nm and 620 nm using a Discovery microplate fluorescence counter (Perkin Elmer), and the signal ratio of 665 nm/620 nm was calculated. […]

SMILES: CC(=O)N1CCC(Cn2c(C(C)(C)C)nc3cc(SCC4CC4)ccc32)CC1
- CB2 pEC50: 8.68
